Results on two substances are retold here after patent US20210046118A1.

The test concerns the target DR5 on the surface of target cancer cells (MM1.S, RPMI8226, K562) (human) (UniProt O14763). The test is described as follows: cell-based or functional assay.

In the case of “TRAIL variant (TRAIL D269H/E195R) expressed on KHYG-1 cells (from UniProt P50591 1-281) (ligand)”, the % killing of MM1.S cells pretreated with 2.5 nM Bortezomib (DR5 upregulated), co-culture 1:1 for 12 hours, flow cytometry turned out to be 70.5 % killing and the % killing of MM1.S cells, vehicle-treated, co-culture 1:1 for 12 hours, flow cytometry was determined as 47.9 % killing.
The corresponding values for “wildtype TRAIL expressed on KHYG-1 cells (from UniProt P50591 1-281) (ligand)” are 51.4 % killing and 41.8 % killing.
